Experimental data as given in patent USRE49825E1, “Piperidinyl nociceptin receptor compounds” (Astraea Therapeutics, LLC, priority 2015, dated 2024).

By UniProt entry, the sequences of proteins in these tests, tags left out. Where a name states a change or a piece, a line headed by the entry shows the natural chain unless it says otherwise.
UniProt P35372, whole entry, looked up: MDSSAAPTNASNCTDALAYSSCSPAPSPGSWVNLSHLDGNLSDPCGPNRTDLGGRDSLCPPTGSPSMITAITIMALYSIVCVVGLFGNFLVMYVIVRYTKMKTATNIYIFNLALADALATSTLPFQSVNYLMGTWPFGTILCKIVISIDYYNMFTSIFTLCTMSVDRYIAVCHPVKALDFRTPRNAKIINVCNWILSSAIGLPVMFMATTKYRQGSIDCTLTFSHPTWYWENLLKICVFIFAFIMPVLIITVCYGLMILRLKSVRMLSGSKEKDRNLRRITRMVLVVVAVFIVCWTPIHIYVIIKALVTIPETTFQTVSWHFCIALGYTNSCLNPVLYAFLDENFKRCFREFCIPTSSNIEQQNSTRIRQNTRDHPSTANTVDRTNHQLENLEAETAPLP
UniProt P41145: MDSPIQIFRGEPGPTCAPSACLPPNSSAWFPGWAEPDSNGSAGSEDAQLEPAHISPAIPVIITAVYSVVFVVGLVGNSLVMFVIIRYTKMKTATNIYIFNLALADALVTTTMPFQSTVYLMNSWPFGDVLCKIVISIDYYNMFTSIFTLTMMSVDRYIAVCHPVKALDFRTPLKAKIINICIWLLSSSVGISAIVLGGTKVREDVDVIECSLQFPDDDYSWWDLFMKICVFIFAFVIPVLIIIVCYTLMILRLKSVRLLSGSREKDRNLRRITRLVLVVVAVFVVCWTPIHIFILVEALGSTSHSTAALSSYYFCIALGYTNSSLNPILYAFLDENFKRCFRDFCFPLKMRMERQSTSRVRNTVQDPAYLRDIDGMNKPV
UniProt P41146: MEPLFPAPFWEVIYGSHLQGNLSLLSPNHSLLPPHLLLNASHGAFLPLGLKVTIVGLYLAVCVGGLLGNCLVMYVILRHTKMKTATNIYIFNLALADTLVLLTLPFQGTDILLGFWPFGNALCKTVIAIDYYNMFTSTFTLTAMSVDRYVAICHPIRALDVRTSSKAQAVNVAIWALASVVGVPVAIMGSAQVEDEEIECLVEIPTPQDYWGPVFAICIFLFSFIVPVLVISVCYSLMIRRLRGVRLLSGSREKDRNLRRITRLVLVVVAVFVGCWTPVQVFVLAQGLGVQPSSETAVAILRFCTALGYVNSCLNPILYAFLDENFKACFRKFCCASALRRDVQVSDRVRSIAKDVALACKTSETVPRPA

Experiments:
[1] = molecular target: mu opioid receptor (Homo sapiens, UniProt P35372); assay: Radioligand binding assay, [3H]DAMGO, membranes of CHO cells transfected with human mu opioid receptor
[2] = molecular target: kappa opioid receptor (Homo sapiens, UniProt P41145); assay: Radioligand binding assay, [3H]U69593, membranes of CHO cells transfected with human kappa opioid receptor
[3] = molecular target: nociceptin (NOP) receptor (Homo sapiens, UniProt P41146); assay: Radioligand binding assay, [3H]N/OFQ, membranes of CHO cells transfected with human NOP receptor
[4] = read-out: Receptor Binding Ki (nM) μ, Compounds of Formula (IV), CHO cell membranes
[5] = read-out: Receptor Binding Ki (nM) κ, Compounds of Formula (IV), CHO cell membranes
[6] = read-out: Receptor Binding Ki (nM) NOP, Compounds of Formula (IV), CHO cell membranes

Compound	Ki [1, 4] [nM]	Ki [2, 5] [nM]	Ki [3, 6] [nM]	Ki ([1]; read-out: Receptor Binding Ki (nM) μ, Compounds of Formula (II), CHO cell membranes) [nM]	Ki ([2]; read-out: Receptor Binding Ki (nM) κ, Compounds of Formula (II), CHO cell membranes) [nM]	Ki ([3]; read-out: Receptor Binding Ki (nM) NOP, Compounds of Formula (II), CHO cell membranes) [nM]
CC(C)C1CCC(N2CCC3(CC2)C(=O)N(CCNC(=O)[C@H](N)CCCNC(=N)N)Cc2ccccc23)CC1 (stereo partly drawn)	15 to 150	15 to 150	< 15			
CC(C)[C@H]1CC[C@@H](N2CCC3(CC2)C(=O)N(CC(N)=O)Cc2cc(-c4ccccc4)ccc23)CC1			> 5000			
CC(C)[C@H]1CC[C@@H](N2CCC3(CC2)C(=O)N(CC(N)=O)Cc2ccccc23)CC1	150 to 5000	150 to 5000	15 to 150			
CC(C)[C@H]1CC[C@@H](N2CCC3(CC2)C(=O)N(CCC(=O)OC(C)(C)C)Cc2ccccc23)CC1	15 to 150	150 to 5000	15 to 150			
CC(C)[C@H]1CC[C@@H](N2CCC3(CC2)C(=O)N(CCNS(N)(=O)=O)Cc2ccccc23)CC1	< 15	15 to 150	< 15			
CN1Cc2ccccc2C2(CCN([C@H]3CC[C@@H](C4CCCCC4)CC3)CC2)C1=O	150 to 5000	150 to 5000	15 to 150			
O=C1NCc2ccccc2C12CCN([C@H]1CC[C@@H](C3CCCCC3)CC1)CC2	15 to 150	150 to 5000	150 to 5000			
CC(=O)OCCN1Cc2ccccc2C2(CCN([C@H]3CC[C@@H](C(C)C)CC3)CC2)C1=O (relative stereo)	15 to 150	150 to 5000	15 to 150			
CC(C)OC(=O)CN1Cc2ccccc2C2(CCN([C@H]3CC[C@@H](C(C)C)CC3)CC2)C1=O (relative stereo)	150 to 5000	150 to 5000	15 to 150			
CC(C)[C@H]1CC[C@@H](N2CCC3(CC2)C(=O)N(CC#N)Cc2ccccc23)CC1 (relative stereo)	15 to 150	150 to 5000	< 15			
CC(C)[C@H]1CC[C@@H](N2CCC3(CC2)C(=O)N(CC(=O)O)Cc2ccccc23)CC1 (relative stereo)	150 to 5000	150 to 5000	150 to 5000			
CC(C)[C@H]1CC[C@@H](N2CCC3(CC2)C(=O)N(CCN)Cc2cc(-c4ccccc4)ccc23)CC1 (relative stereo)	150 to 5000	150 to 5000	150 to 5000			
CC(C)[C@H]1CC[C@@H](N2CCC3(CC2)C(=O)N(CCN)Cc2cc(Br)ccc23)CC1 (relative stereo)	15 to 150		< 15			
CC(C)[C@H]1CC[C@@H](N2CCC3(CC2)C(=O)N(CCN)Cc2ccccc23)CC1 (relative stereo)	15 to 150	150 to 5000	< 15			
CC(C)[C@H]1CC[C@@H](N2CCC3(CC2)C(=O)N(CCNC(=N)N)Cc2ccccc23)CC1 (relative stereo)	15 to 150	15 to 150	< 15			
CC(C)[C@H]1CC[C@@H](N2CCC3(CC2)C(=O)N(CCNC(N)=O)Cc2ccccc23)CC1 (relative stereo)	150 to 5000	150 to 5000	15 to 150			
CC(C)[C@H]1CC[C@@H](N2CCC3(CC2)C(=O)N(CCNC(N)=S)Cc2ccccc23)CC1 (relative stereo)	15 to 150	15 to 150	< 15			
CC(C)[C@H]1CC[C@@H](N2CCC3(CC2)C(=O)N(CCNC=O)Cc2ccccc23)CC1 (relative stereo)	15 to 150	15 to 150	15 to 150			
CC(C)[C@H]1CC[C@@H](N2CCC3(CC2)C(=O)N(CCNS(C)(=O)=O)Cc2ccccc23)CC1 (relative stereo)	15 to 150	150 to 5000	< 15			
CC(C)[C@H]1CC[C@@H](N2CCC3(CC2)C(=O)N(CCO)Cc2ccccc23)CC1 (relative stereo)	15 to 150	15 to 150	< 15			
CC(C)[C@H]1CC[C@@H](N2CCC3(CC2)C(=O)N(CCOCc2ccccc2)Cc2ccccc23)CC1 (relative stereo)	15 to 150	15 to 150	< 15			
CC(C)[C@H]1CC[C@@H](N2CCC3(CC2)C(=O)NCc2cc(Br)ccc23)CC1 (relative stereo)	15 to 150	150 to 5000	15 to 150			
COC(=O)CN1Cc2ccccc2C2(CCN([C@H]3CC[C@@H](C(C)C)CC3)CC2)C1=O (relative stereo)	150 to 5000	150 to 5000	15 to 150			
COCCN1Cc2ccccc2C2(CCN([C@H]3CC[C@@H](C(C)C)CC3)CC2)C1=O (relative stereo)	150 to 5000	150 to 5000	15 to 150			
Cc1ccc2c(c1)CNC(=O)C21CCN([C@H]2CC[C@@H](C(C)C)CC2)CC1 (relative stereo)	150 to 5000	150 to 5000	15 to 150			
N-(2-(1′- (4,4-dimethyl- cyclohexyl)-3- oxo-1H-spiro [isoquinoline- 4,4′-piperidin]- 2(3H)-yl) ethyl)amino- sulfonamide	15 to 150	150 to 5000	15 to 150			
N-(((1-(1-(cis-4- isopropylcyclohexyl) piperidin-4-yl)-1H- indol-3- yl)methyl) carbamothioyl) benzamide				150 to 5000	> 5000	150 to 5000

Like-named read-outs stand apart in the source and are kept apart here.
